# Laboratory results taken from PubChem BioAssay (NCI).
# Several values for one entry are separate records, joined by “and”; a condition that tells them apart may be missing. Equal entries are not always repeated. The entries are a selection whose mix differs from that of the whole data set.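 Assay: single dose, 48 h. Readout: percent growth (0 = no net growth; negative = cell death). Active: <10.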 Activity calls are given as the source filed them.
# Test system: DU-145 prostate
# Assay: NCI-60 one-dose screen, 48 h (100 = growth as untreated, 0 = no growth, -100 = all killed)
# Settings: 10 µM
row,SMILES,growth
1,NC(=NCCN/C(N)=N/[N+](=O)[O-])N[N+](=O)[O-],inactive: 106%
2,O=[N+]([O-])N(CCN(CC(Br)([N+](=O)[O-])[N+](=O)[O-])[N+](=O)[O-])CC(Br)([N+](=O)[O-])[N+](=O)[O-],inactive: 113%
3,CN(C)Nc1c([N+](=O)[O-])cc([N+](=O)[O-])cc1[N+](=O)[O-],inactive: 110%
4,O=[N+]([O-])OCCOc1ccc([N+](=O)[O-])cc1[N+](=O)[O-],inactive: 120%
5,N=C(N)N(N)[N+](=O)[O-],inactive: 104%
6,O=[N+]([O-])c1cc([N+](=O)[O-])c(C(F)(F)F)c([N+](=O)[O-])c1O,inactive: 101%
7,CCOC(=O)CSc1c(N)c(C)nn1C.O=[N+]([O-])c1cc([N+](=O)[O-])c(O)c([N+](=O)[O-])c1,inactive: 107%
8,O=[N+]([O-])c1ccc(OP2(=O)COCCO2)cc1 (configuration not stated),inactive: 112%
9,CCN(C)CC.O=[N+]([O-])c1cc([N+](=O)[O-])c(O)c([N+](=O)[O-])c1,inactive: 108%
10,OCCSCCO,inactive: 117%
11,CC(C)N1CCN(CCOC(=O)C(O)(c2ccccc2)c2ccccc2)CC1,inactive: 112%
12,O=[N+]([O-])c1ccc(Oc2c([N+](=O)[O-])cc([N+](=O)[O-])cc2[N+](=O)[O-])cc1,inactive: 104%
13,O=C(Cl)c1c([N+](=O)[O-])cc([N+](=O)[O-])cc1[N+](=O)[O-],inactive: 28.3%
14,O=[N+]([O-])c1cc([N+](=O)[O-])c(Nc2ccc(Cl)cc2)c([N+](=O)[O-])c1,inactive: 77.6%
15,CNc1ccccc1.O=[N+]([O-])c1cc([N+](=O)[O-])c(O)c([N+](=O)[O-])c1,inactive: 119%
16,CCOP(=O)(CC)OCC,inactive: 120%

row,SMILES,growth
1,O=[N+]([O-])c1cc([N+](=O)[O-])c(O)c([N+](=O)[O-])c1.c1ccnnc1,inactive: 116%
2,CCCOP(=S)(Cl)OCCC,inactive: 111%
3,CN(C)CCS,inactive: 99.7% and inactive: 115%
4,CCN(CC)CCS,inactive: 104%
5,CN(CCCl)CCCCCCCl,inactive: 91.8%
6,Cc1ccc(Nc2c([N+](=O)[O-])cc([N+](=O)[O-])cc2[N+](=O)[O-])cc1,inactive: 105%
7,CN1CCN(CCOC(=O)C(O)(c2ccccc2)c2ccccc2)CC1,inactive: 110%
8,NN/C(N)=N/[N+](=O)[O-],inactive: 123%
9,CP(=S)(Cl)N(CCCl)CCCl (configuration not stated),inactive: 113%
10,CC[N+](C)(CC)Cc1cc(Cc2ccccc2)ccc1OC(=O)N(C)C,inactive: 116%
11,Clc1ccccc1SCCBr,inactive: 103%
12,CP(=O)(OCCCCl)N(CCCl)CCCl (configuration not stated),inactive: 115%
13,O=[N+]([O-])c1cccc([N+](=O)[O-])c1O,inactive: 106%
14,COC(=O)C(O)(c1ccccc1)c1ccccc1,inactive: 110%
15,Cc1c([N+](=O)[O-])c(C)c([N+](=O)[O-])c(Nc2c([N+](=O)[O-])c(C)c([N+](=O)[O-])c(C)c2[N+](=O)[O-])c1[N+](=O)[O-],inactive: 39.9%

# Test system: K-562 leukemia
# Assay: as above
# Settings: 10 µM
row,SMILES,growth
1,NC(=NCCN/C(N)=N/[N+](=O)[O-])N[N+](=O)[O-],inactive: 105%
2,O=[N+]([O-])N(CCN(CC(Br)([N+](=O)[O-])[N+](=O)[O-])[N+](=O)[O-])CC(Br)([N+](=O)[O-])[N+](=O)[O-],inactive: 86.7%
3,CN(C)Nc1c([N+](=O)[O-])cc([N+](=O)[O-])cc1[N+](=O)[O-],inactive: 94.3%
4,O=[N+]([O-])OCCOc1ccc([N+](=O)[O-])cc1[N+](=O)[O-],inactive: 97.8%
5,N=C(N)N(N)[N+](=O)[O-],inactive: 96.2%
6,O=[N+]([O-])c1cc([N+](=O)[O-])c(C(F)(F)F)c([N+](=O)[O-])c1O,inactive: 101%
7,CCOC(=O)CSc1c(N)c(C)nn1C.O=[N+]([O-])c1cc([N+](=O)[O-])c(O)c([N+](=O)[O-])c1,inactive: 100%
8,O=[N+]([O-])c1ccc(OP2(=O)COCCO2)cc1 (configuration not stated),inactive: 100%
9,CCN(C)CC.O=[N+]([O-])c1cc([N+](=O)[O-])c(O)c([N+](=O)[O-])c1,inactive: 107%
10,OCCSCCO,inactive: 116%
11,CC(C)N1CCN(CCOC(=O)C(O)(c2ccccc2)c2ccccc2)CC1,inactive: 91%
12,O=[N+]([O-])c1ccc(Oc2c([N+](=O)[O-])cc([N+](=O)[O-])cc2[N+](=O)[O-])cc1,inactive: 104%
13,O=C(Cl)c1c([N+](=O)[O-])cc([N+](=O)[O-])cc1[N+](=O)[O-],active: -23.2%
14,O=[N+]([O-])c1cc([N+](=O)[O-])c(Nc2ccc(Cl)cc2)c([N+](=O)[O-])c1,active: 5.46%
15,CNc1ccccc1.O=[N+]([O-])c1cc([N+](=O)[O-])c(O)c([N+](=O)[O-])c1,inactive: 104%
16,CCOP(=O)(CC)OCC,inactive: 107%

row,SMILES,growth
1,O=[N+]([O-])c1cc([N+](=O)[O-])c(O)c([N+](=O)[O-])c1.c1ccnnc1,inactive: 104%
2,CCCOP(=S)(Cl)OCCC,inactive: 103%
3,CN(C)CCS,inactive: 103% and inactive: 115%
4,CCN(CC)CCS,inactive: 105%
5,CN(CCCl)CCCCCCCl,inactive: 99.9%
6,Cc1ccc(Nc2c([N+](=O)[O-])cc([N+](=O)[O-])cc2[N+](=O)[O-])cc1,inactive: 62%
7,CN1CCN(CCOC(=O)C(O)(c2ccccc2)c2ccccc2)CC1,inactive: 112%
8,NN/C(N)=N/[N+](=O)[O-],inactive: 93.1%
9,CP(=S)(Cl)N(CCCl)CCCl (configuration not stated),inactive: 107%
10,CC[N+](C)(CC)Cc1cc(Cc2ccccc2)ccc1OC(=O)N(C)C,inactive: 93.3%
11,Clc1ccccc1SCCBr,inactive: 110%
12,CP(=O)(OCCCCl)N(CCCl)CCCl (configuration not stated),inactive: 100%
13,O=[N+]([O-])c1cccc([N+](=O)[O-])c1O,inactive: 95%
14,COC(=O)C(O)(c1ccccc1)c1ccccc1,inactive: 118%
15,Cc1c([N+](=O)[O-])c(C)c([N+](=O)[O-])c(Nc2c([N+](=O)[O-])c(C)c([N+](=O)[O-])c(C)c2[N+](=O)[O-])c1[N+](=O)[O-],active: 4.5%
